Assay results reported in PubChem BioAssay AID1246 (Columbia University Molecular Screening Center, 2008).
Only a part is listed here, and it is no random draw. Calls of active or inactive are those of the source.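 How the source made its calls: active means inhibition above the batch mean plus 3 SD, and confirmed as a hit on visual image review (cut at about 43% in these data); inconclusive means passes the inhibition cutoff but fails visual image review; inactive means the rest.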

assay: E-selectin induction blockers in HUVEC – imaging, immunofluorescence, high content, primary screen (AID 1246); settings: HUVEC TNFa-induced E-selectin immunofluorescence, at 2 µM, hits give high values;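 further: 0% = TNF-stimulated DMSO wells and 100% = unstimulated control wells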

Question: With `CCOC(=O)c1ccc(NP(C)(=O)Oc2ccc(Cl)cc2)cc1` (stereo not given) as the compound, how does the inhibition read?
Answer: inactive: 10.1%

Question: Which inhibition does the source give for `CP(=O)(OC12CC3CC(CC(C3)C1)C2)OC12CC3CC(CC(C3)C1)C2` here?
Answer: inactive: 15.4%

Question: With `CN(C)C(=O)c1c([N+](=O)[O-])cc([N+](=O)[O-])cc1[N+](=O)[O-]` as the compound, how does the inhibition read?
Answer: inactive: 20.1%

Question: Which inhibition does the source give for `CC(C)(C)c1ccc(OP(C)(=O)O)cc1` here?
Answer: inactive: -14.5%

Question: With `CP(=O)(Nc1ccc(Cl)cc1)Oc1ccc(F)cc1` (stereo not given) as the compound, how does the inhibition read?
Answer: inactive: 3.79%

Question: Which inhibition does the source give for `CP(=O)(Oc1ccccc1)N1CCOC1=O` (stereo not given) here?
Answer: inactive: -25.9%

Question: Which inhibition does the source give for `COc1ccc(OP(C)(=O)Nc2ccc(Br)cc2)cc1` (stereo not given) here?
Answer: inactive: -51.5%

Question: Which inhibition does the source give for `CP(=O)(Nc1ccccn1)Oc1ccccc1` (stereo not given) here?
Answer: inactive: 9.93%

Question: Which inhibition does the source give for `CCc1ccc(OP(C)(=O)O)cc1` here?
Answer: inactive: 4.64%

Question: Which inhibition does the source give for `Cc1c(NP(C)(=O)Oc2ccc(C(C)C)cc2)c(=O)n(-c2ccccc2)n1C` (stereo not given) here?
Answer: inactive: 14.7%

Question: Which inhibition does the source give for `COc1ccc(OP(C)(=O)Nc2ccccn2)cc1` (stereo not given) here?
Answer: inactive: 2.62%

Question: With `CN(C)CCOC(=O)C(O)(c1ccccc1)C1CCCC1` (stereo not given) as the compound, how does the inhibition read?
Answer: inactive: 10.6%

Question: For `Cc1nc2ccc3ccccc3c2o1.O=[N+]([O-])c1cc([N+](=O)[O-])c(O)c([N+](=O)[O-])c1`, which inhibition is on record?
Answer: inactive: -12.7%

Question: With `CP(=O)(Nc1ccccc1)Oc1ccc(F)cc1` (stereo not given) as the compound, how does the inhibition read?
Answer: inactive: 3.28%

Question: Which inhibition does the source give for `CCN(CC)CCCOC(=O)C(O)(c1ccccc1)C1CCCCC1` (stereo not given) here?
Answer: inactive: 7.35%

Question: For `CCOC(=O)c1ccc(NP(C)(=O)Oc2ccc(F)cc2)cc1` (stereo not given), which inhibition is on record?
Answer: inactive: -4.03%

Question: Which inhibition does the source give for `COc1ccc(OP(C)(=O)Nc2ccc(SC(F)(F)F)cc2)cc1` (stereo not given) here?
Answer: inactive: -18.9%

Question: Which inhibition does the source give for `O=C(OCCN1CCN(CCOCc2ccccc2)CC1)C(O)(c1ccccc1)c1ccccc1` here?
Answer: inactive: 22.2%

Question: Which inhibition does the source give for `Cc1ccccc1NP(C)(=O)Nc1ccccc1C` here?
Answer: inactive: -47.5%

Question: With `CP(=O)(Nc1ccc2c(c1)OCCO2)Oc1ccccc1` (stereo not given) as the compound, how does the inhibition read?
Answer: inactive: 6.33%

Question: With `CCOP(C)(=S)SCC(=O)NC(C)(CC)C(=O)O` (stereo not given) as the compound, how does the inhibition read?
Answer: inactive: 19%

Question: With `CN(C)CCOC(=O)C(O)(c1ccccc1)C1CCCCC1` (stereo not given) as the compound, how does the inhibition read?
Answer: inactive: 8.87%

Question: With `COc1ccc(OP(C)(=O)Nc2cccc(Br)c2)cc1` (stereo not given) as the compound, how does the inhibition read?
Answer: inactive: -23.2%

Question: For `CP(=O)(Nc1ccc(SC(F)(F)F)cc1)Oc1ccccc1` (stereo not given), which inhibition is on record?
Answer: inactive: -6.04%

Question: With `COc1ccccc1OP(C)(=O)Nc1c(C)cccc1C` (stereo not given) as the compound, how does the inhibition read?
Answer: inactive: 7.48%

Question: Which inhibition does the source give for `Cc1nc2ccc3ccccc3c2s1.O=[N+]([O-])c1cc([N+](=O)[O-])c(O)c([N+](=O)[O-])c1` here?
Answer: inactive: 39.8%

Question: Which inhibition does the source give for `Cc1ccc(C)c(NP(C)(=O)Oc2ccccc2)c1` (stereo not given) here?
Answer: inactive: -19.4%

Question: With `Cc1cc(C)cc(OP(C)(=O)Nc2ccccn2)c1` (stereo not given) as the compound, how does the inhibition read?
Answer: inactive: -3.09%

Question: Which inhibition does the source give for `CCOC(=O)c1ccc(NP(C)(=O)Oc2cc(C)cc(C)c2)cc1` (stereo not given) here?
Answer: inactive: -6.02%

Question: Which inhibition does the source give for `Cc1cc(C)cc(OP(C)(=O)Nc2ccc(C)cc2C)c1` (stereo not given) here?
Answer: inactive: 6.93%

Question: With `CC1=NCCc2c1[nH]c1ccccc21.O=[N+]([O-])c1cc([N+](=O)[O-])c(O)c([N+](=O)[O-])c1` as the compound, how does the inhibition read?
Answer: inactive: 27.7%

Question: With `COc1ccc(OP(C)(=O)Nc2cccc(F)c2)cc1` (stereo not given) as the compound, how does the inhibition read?
Answer: inactive: -7.84%

Question: Which inhibition does the source give for `COc1ccccc1OP(C)(=O)Nc1ccc(C)cc1` (stereo not given) here?
Answer: inactive: -43.8%

Question: For `Cc1ccc(NP(C)(=O)Oc2ccccc2)c(C)c1` (stereo not given), which inhibition is on record?
Answer: inactive: 49.7%

Question: Which inhibition does the source give for `CCOC(=O)c1ccc(NP(C)(=O)Oc2ccccc2)cc1` (stereo not given) here?
Answer: inactive: -0.8%

Question: With `CP(=O)(Nc1ccccn1)Oc1ccc(Cl)cc1` (stereo not given) as the compound, how does the inhibition read?
Answer: inactive: 8.72%

Question: For `CCOP(C)(=S)SCC(=O)NC(C)C(=O)O` (stereo not given), which inhibition is on record?
Answer: inactive: -0.02%

Question: Which inhibition does the source give for `Cc1cccc(C)c1OP(C)(=O)Nc1ccc(SC(F)(F)F)cc1` (stereo not given) here?
Answer: inactive: -5.55%

Question: Which inhibition does the source give for `CP(=O)(Nc1ccccc1Br)Oc1ccccc1` (stereo not given) here?
Answer: inactive: -9.52%

Question: For `CP(=S)(Nn1cnnc1)Oc1ccccc1` (stereo not given), which inhibition is on record?
Answer: inactive: -9.25%
